What all share (format): in vivo, BALB/c nude or Nu/nu mice
For one test, the system named is HNSCC PDX Model HN2594. The test is described as follows: tumor growth in HNSCC PDX model HN2594. The settings on record: PDX HN2594, wild type H-Ras, H-Ras 2.8x median, H/K+N 3.6; tipifarnib 80 mg/kg PO BID, cisplatin 3 mg/kg IP QW, palbociclib 35 mg/kg PO QD, cetuximab 1 mg/mouse IP QW; vs vehicle. The protocol: (§1) Female BALB/c nude or Nu/nu mice (6-8 weeks) were inoculated subcutaneously on the right flank with primary human tumor model fragment (2-3 mm in diameter) for tumor development. When average tumor size reaches about 250-350 mm^3, mice were randomly grouped into dosing groups. Animals were dosed with tipifarnib vehicle (20% w/v Hydroxypropyl-β-cyclodextrin) or tipifarnib at a dose of 80 mg/kg BID PO for 3-4 weeks and tumor dimensions were measured twice per week.
(§2) The ability of tipifarnib to inhibit tumor growth was determined using selected patient-derived xenograft (PDX) models of HNSCC. The selected models expressed different levels of H-Ras or had different high ratios of H-Ras expression to the combined expression of K-Ras and N-Ras (“H/K+N ratio”). The expression levels of H-Ras, K-Ras and N-Ras in these PDX models were determined by RNAseq.
(§3) After tumor development, mice were administered either vehicle, tipifarnib, a second active agent, or a combination of tipifarnib and a second active agent.
(§4) After tumor development, mice were administered either vehicle, tipifarnib (80 mg/kg PO BID), a second active agent, or a combination of tipifarnib and a second active agent.
(§5) After tumor development, mice were administered either vehicle, tipifarnib (at a reduced dosing of 60 mg/kg PO BID), a second active agent, or a combination of tipifarnib and a second active agent.

A further test concerns HNSCC PDX Model HN3411. Put plainly: tumor growth in HNSCC PDX model HN3411. The settings on record: PDX HN3411, H-Ras 4.1x median, H/K+N 2.7; Example III: tipifarnib, cetuximab, cisplatin or palbociclib alone or combined; vs vehicle. How it is done:
as §1, §3
(§6) After tumor development, mice were administered either vehicle, tipifarnib (at a reduced dosing of 60 mg/kg PO BID), a second active agent, or a combination of tipifarnib and a second active agent. The second agent was PI3K-α inhibitor BYL719 (50 mg/kg PO QD).

The next test has as its system HNSCC PDX Model HN3067. Put plainly: tumor growth in HNSCC PDX model HN3067. To be noted: PDX HN3067, H-Ras 2.7x median, H/K+N 2.8; tipifarnib 80 mg/kg PO BID, cisplatin 3 mg/kg IP QW, palbociclib 35 mg/kg PO QD, cetuximab 1 mg/mouse IP QW; vs vehicle. How it is done:
as §1, §4, §6

A further test concerns HNSCC PDX Model HN2576. Put plainly: tumor growth in HNSCC PDX model HN2576. To be noted: PDX HN2576, wild type H-Ras, H-Ras 3.0x median, H/K+N 4.6; tipifarnib 80 mg/kg PO BID, cisplatin 3 mg/kg IP QW, palbociclib 35 mg/kg PO QD, cetuximab 1 mg/mouse IP QW; vs vehicle. The protocol: as §1, §2, §4, §5
The test system of the next test is HNSCC PDX Model HN3679. The test is described as follows: tumor growth in HNSCC PDX model HN3679. The settings on record: PDX HN3679, H-Ras 2.6x median, H/K+N 3.6; tipifarnib 80 mg/kg PO BID, palbociclib 35 mg/kg PO QD, cetuximab 1 mg/mouse IP QW; vs vehicle. How it is done: as §1
The ability of tipifarnib to inhibit tumor growth was determined using selected patient-derived xenograft (PDX) models of HNSCC. The selected models expressed different levels of H-Ras or had different high ratios of H-Ras expression to the combined expression of K-Ras and N-Ras (“H/K+N ratio”). The expression levels of H-Ras, K-Ras and N-Ras in these PDX models were determined by RNAseq. All models in Table 1 express wild type H-Ras.
As described in Example I, mice were inoculated subcutaneously on the flank with PDX HNSCC models HN3792, HN0586, HN2576, HN3067, HN2594, HN3461, HN3776, HN3474, and HN3679, with each of the nine models having high H-Ras expression level and/or high H/N+K Ratios, as detailed in Table 1). After tumor development, mice were administered either vehicle, tipifarnib (80 mg/kg PO BID), a second active agent, or a combination of tipifarnib and a second active agent.

“Also recorded” adds a separate entry of the source.

The source of these data is patent publication US11672774B2, “Methods of treating squamous cell carcinomas with farnesyltransferase inhibitors” (Kura Oncology, Inc., priority 2019, dated 2023).

As to cetuximab, the tumor growth entry is “partial response (inhibited tumor growth); also recorded: had activity” in the test with HNSCC PDX Model HN2594; “partially inhibited tumor growth” in the test on HNSCC PDX Model HN3411; “high activity” with HNSCC PDX Model HN3067; “high activity” with HNSCC PDX Model HN2576; “high activity” with HNSCC PDX Model HN3679.
